US12692247B2, “Phenyl- and pyridopyrazole derivatives as inhibitors of DDR1” (Redx Pharma Limited, priority 2021, dated 2026)

Chains of the proteins cited; added tags and fusions are not shown. Residues count along the entry.
UniProt Q16832, 427-855 limits assumed: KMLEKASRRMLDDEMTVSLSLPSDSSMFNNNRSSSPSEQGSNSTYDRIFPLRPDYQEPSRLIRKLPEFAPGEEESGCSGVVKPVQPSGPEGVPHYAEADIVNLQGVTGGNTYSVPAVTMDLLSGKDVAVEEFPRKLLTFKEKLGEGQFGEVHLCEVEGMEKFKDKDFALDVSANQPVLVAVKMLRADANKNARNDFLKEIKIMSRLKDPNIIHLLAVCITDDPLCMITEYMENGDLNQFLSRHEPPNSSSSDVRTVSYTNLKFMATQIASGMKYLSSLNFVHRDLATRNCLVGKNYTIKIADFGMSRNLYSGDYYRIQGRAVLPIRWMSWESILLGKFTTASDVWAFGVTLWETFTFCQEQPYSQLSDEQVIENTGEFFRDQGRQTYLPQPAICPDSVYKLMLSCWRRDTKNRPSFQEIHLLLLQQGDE
UniProt Q08345, 440-876 isoform 2 limits assumed: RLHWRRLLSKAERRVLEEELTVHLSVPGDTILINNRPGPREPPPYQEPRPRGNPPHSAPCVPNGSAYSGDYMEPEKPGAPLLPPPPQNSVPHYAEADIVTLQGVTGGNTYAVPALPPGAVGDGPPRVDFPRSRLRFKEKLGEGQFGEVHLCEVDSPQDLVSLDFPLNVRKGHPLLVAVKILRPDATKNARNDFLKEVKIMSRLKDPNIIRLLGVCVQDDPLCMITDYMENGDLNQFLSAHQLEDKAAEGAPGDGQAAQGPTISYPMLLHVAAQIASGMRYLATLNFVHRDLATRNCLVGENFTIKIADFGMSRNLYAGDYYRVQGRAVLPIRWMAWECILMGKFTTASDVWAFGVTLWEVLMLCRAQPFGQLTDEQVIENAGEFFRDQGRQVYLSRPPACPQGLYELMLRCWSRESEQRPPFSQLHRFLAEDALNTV

Legend:
[1] = biological target: Recombinant human DDR2 (Homo sapiens, UniProt Q16832); experiment: LanthaScreen Eu Kinase Binding Assay, DDR2; details: recombinant human DDR2 (1.75 nM; aa427-855, GST tag), Kinase Tracer 178 10 nM, time-resolved fluorescence, at least two independent replicates
[2] = biological target: Recombinant human DDR1 (Homo sapiens, UniProt Q08345); experiment: LanthaScreen Eu Kinase Binding Assay, DDR1; details: recombinant human DDR1 (2.5 nM; aa440-876, GST tag), Kinase Tracer 178 5 nM, time-resolved fluorescence, at least two independent replicates

| SMILES | DDR2 pIC50 [1] | DDR1 pIC50 [2] |
| --- | --- | --- |
| Cc1cc2[nH]ncc2cc1Nc1cccc2ccn(CC(=O)NCC(F)(F)F)c(=O)c12 | C (7≥pIC50>6) | C (7≥pIC50>6) |
| N#Cc1cc(Nc2cccc3ccn(CC(=O)N4CCC[C@H]4C(F)(F)F)c(=O)c23)cc2cn[nH]c12 | B (8≥pIC50>7) | A (pIC50>8) |
| Cc1n[nH]c2cc(Nc3cccc4ccn(CC(=O)N5CCC[C@H]5C(F)(F)F)c(=O)c34)ccc12 | B (8≥pIC50>7) | A (pIC50>8) |
| Cc1n[nH]c2cc(Nc3cccc4ccn(CC(=O)N[C@@H](C)C(F)(F)F)c(=O)c34)ccc12 | B (8≥pIC50>7) | A (pIC50>8) |
| Cn1ncc2cc(Nc3cccc4ccn(C(F)C(=O)NCC(F)(F)F)c(=O)c34)ccc21 (stereo not drawn) | D (pIC50≤6) | C (7≥pIC50>6) |
| Cc1n[nH]c2cc(Nc3cccc4ccn(CC(=O)NCC(F)(F)F)c(=O)c34)cc(F)c12 | C (7≥pIC50>6) | B (8≥pIC50>7) |
| Cc1cc(Nc2cccc3ccn(CC(=O)NCC(F)(F)F)c(=O)c23)cc2[nH]ncc12 | C (7≥pIC50>6) | B (8≥pIC50>7) |
| O=C(Cn1ccc2cccc(Nc3cnc4[nH]ncc4c3)c2c1=O)Nc1cnoc1 | C (7≥pIC50>6) | B (8≥pIC50>7) |
| Cn1ncc2cc(Nc3cccc4ccn(CC(=O)NCC(F)(F)F)c(=O)c34)cnc21 | C (7≥pIC50>6) | C (7≥pIC50>6) |
| Cn1ncc2cc(Nc3c(F)ccc4ccn(CC(=O)Nc5cccc(C(C)(C)O)c5)c(=O)c34)ccc21 | B (8≥pIC50>7) | A (pIC50>8) |
| Cn1ncc2ncc(Nc3cccc4ccn(CC(=O)NCC(F)(F)F)c(=O)c34)cc21 | D (pIC50≤6) | D (pIC50≤6) |
| Cn1ncc2cc(Nc3c(F)ccc4ccn(CC(=O)NCC(F)(F)F)c(=O)c34)cnc21 | C (7≥pIC50>6) | B (8≥pIC50>7) |
